# Biological target: T1, sbAvd-1 (steroid-binding avidin mutant) (Gallus gallus, UniProt P02701, D37R/L38M/G39N/S40H)
# By UniProt entry, the sequences of proteins in these tests, tags left out. Residues count along the entry.
# UniProt P02701, 25-152 D37R/L38M/G39N/S40H: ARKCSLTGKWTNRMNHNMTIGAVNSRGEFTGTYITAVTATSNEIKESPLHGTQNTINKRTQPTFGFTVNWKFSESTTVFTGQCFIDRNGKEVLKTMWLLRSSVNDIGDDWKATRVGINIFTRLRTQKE
# T1 construct: gene AVD; full avidin core, homotetramer, produced in E. coli
# Experiment: SPR competition on testosterone-BSA chip, […] inhibitor
smiles,measurement,value
C[C@]12CCC(=O)C=C1CC[C@@H]1[C@@H]2CC[C@]2(C)C(=O)CC[C@@H]12 [androstenedione],"SPR competition on testosterone-BSA chip, 50 μM inhibitor","The binding of the sbAvd-1 protein was totally inhibited by dehydroepiandrosterone, androstenedione, and biotin."
